Measured values reported in patent US8895564B2, “Biguanide derivative compound” (Nihon University, priority 2010, dated 2014).

By UniProt entry, the sequences of proteins in these tests, tags left out. Residues count along the entry.
UniProt Q00959, 23-1464: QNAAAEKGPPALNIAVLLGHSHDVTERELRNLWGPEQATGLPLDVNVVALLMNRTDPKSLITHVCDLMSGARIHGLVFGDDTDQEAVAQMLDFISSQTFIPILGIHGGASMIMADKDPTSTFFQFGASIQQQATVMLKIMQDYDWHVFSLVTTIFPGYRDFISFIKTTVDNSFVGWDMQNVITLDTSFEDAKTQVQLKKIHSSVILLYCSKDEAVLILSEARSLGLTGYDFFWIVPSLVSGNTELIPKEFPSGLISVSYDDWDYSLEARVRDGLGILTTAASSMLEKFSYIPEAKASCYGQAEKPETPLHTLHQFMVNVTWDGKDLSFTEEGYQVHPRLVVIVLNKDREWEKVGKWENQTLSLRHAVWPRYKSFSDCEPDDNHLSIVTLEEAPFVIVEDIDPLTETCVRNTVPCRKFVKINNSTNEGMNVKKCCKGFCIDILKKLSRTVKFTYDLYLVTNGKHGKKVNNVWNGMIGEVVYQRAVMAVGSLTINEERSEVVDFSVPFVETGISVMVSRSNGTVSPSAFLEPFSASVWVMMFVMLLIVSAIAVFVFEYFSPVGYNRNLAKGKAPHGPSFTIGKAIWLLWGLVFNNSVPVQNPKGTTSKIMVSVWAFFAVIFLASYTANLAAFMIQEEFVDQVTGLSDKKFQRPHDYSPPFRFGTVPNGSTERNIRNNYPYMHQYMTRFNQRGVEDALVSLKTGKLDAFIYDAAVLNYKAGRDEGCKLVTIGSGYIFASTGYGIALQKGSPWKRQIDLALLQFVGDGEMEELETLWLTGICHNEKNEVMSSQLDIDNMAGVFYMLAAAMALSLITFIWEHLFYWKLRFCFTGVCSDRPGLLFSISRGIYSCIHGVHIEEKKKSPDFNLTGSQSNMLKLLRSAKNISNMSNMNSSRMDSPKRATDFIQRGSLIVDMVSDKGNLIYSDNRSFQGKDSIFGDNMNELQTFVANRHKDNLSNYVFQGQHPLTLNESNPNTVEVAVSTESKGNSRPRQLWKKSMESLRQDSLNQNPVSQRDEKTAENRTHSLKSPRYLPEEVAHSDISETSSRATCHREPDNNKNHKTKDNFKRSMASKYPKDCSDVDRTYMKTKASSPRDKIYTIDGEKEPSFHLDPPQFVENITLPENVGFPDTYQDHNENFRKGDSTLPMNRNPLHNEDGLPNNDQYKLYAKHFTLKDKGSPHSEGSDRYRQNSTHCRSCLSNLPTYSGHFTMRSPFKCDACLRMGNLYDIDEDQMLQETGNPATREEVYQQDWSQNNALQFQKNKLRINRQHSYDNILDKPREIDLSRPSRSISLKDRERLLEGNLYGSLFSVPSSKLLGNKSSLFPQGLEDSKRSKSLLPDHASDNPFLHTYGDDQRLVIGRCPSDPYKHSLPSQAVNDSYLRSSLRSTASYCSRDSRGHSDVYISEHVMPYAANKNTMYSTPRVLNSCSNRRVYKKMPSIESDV

Molecular target: NR1/NR2A (Rattus norvegicus, UniProt P35439+Q00959)
Experiment: Inhibition of NMDA receptor NR1/NR2A activity in Xenopus laevis oocytes, two-electrode voltage clamp method

CC12CC3CC(C)(C1)CC(N)(C3)C2 [Memantine, reference compound]
IC50: 880 nM
